# Measurements: patent US20260174855A1 (priority 2022, published 2026)
# Columns and labels:
# [1] = [4, 5]; cited from earlier work
# neonatal rats = experiment: prenatal NorBUP exposure, neonatal global withdrawal score; conditions: NorBUP 0.3-3 mg/kg per day s.c.; naltrexone challenge postnatal day 1
structure (smiles),measurement,setting,value
CO[C@]12CC[C@@]3(C[C@@H]1[C@](C)(O)C(C)(C)C)[C@H]1Cc4ccc(O)c5c4[C@@]3(CCN1)[C@H]2O5,concentration in human placenta and meconium relative to BUP,[1],at least 10 fold
same,neonatal dependence and withdrawal after prenatal exposure,neonatal rats,induces dependence and withdrawal in neonatal rats
